Experimental data as given in patent US20030119895A1, “Methods using a combination of a 3-heteroaryl-2-indolinone and a cyclooxygenase-2 inhibitor for the treatment of neoplasia” (Pharmacia Corporation, priority 1998, published 2003).

Conditions: for body wt Average: group average; for body wt: individual mouse
[1] = Group 5, SU-5416 50 mpkd, Day 0, day of injection
[2] = Group 5, SU-5416 50 mpkd, Day 7
[3] = Group 5, SU-5416 50 mpkd, Day 10
[4] = Group 5, SU-5416 50 mpkd, Day 14
[5] = Group 5, SU-5416 50 mpkd, Day 17
[6] = Group 5, SU-5416 50 mpkd, Day 21
[7] = Group 5, SU-5416 50 mpkd, Day 31

Question: Which results are given for `Cc1cc(C)c(C=C2C(=O)Nc3ccccc32)[nH]1`?
Answer: body wt Average (Group 2, SU5416 25 mg/kg/day s.c., Day 0, day of injection): 26.91; body wt (Group 2, SU5416 25 mg/kg/day s.c., Day 0, day of injection, 25 mg/kg/day): 28.71 and 26.6 and 24.24 and 25.48 and 26.36 and 22.53 and 29.41; body wt Average (Group 2, SU5416 25 mg/kg/day s.c., Day 7): 27.70; body wt (Group 2, SU5416 25 mg/kg/day s.c., Day 7, 25 mg/kg/day): 29.59 and 27.28 and 24.61 and 27.54 and 23.83 and 30.4; body wt (Group 2, SU5416 25 mg/kg/day s.c., Day 10, 25 mg/kg/day): 30.14 and 27.48 and 24.19 and 28.31 and 24.22; body wt Average (Group 2, SU5416 25 mg/kg/day s.c., Day 14): 26.84; body wt (Group 2, SU5416 25 mg/kg/day s.c., Day 14, 25 mg/kg/day): 29.47 and 23.54 and 27.08 and 29.41; body wt Average (Group 2, SU5416 25 mg/kg/day s.c., Day 17): 25.93; body wt (Group 2, SU5416 25 mg/kg/day s.c., Day 17, 25 mg/kg/day): 26.16 and 23.34 and 31.49 and 23.48 and 25.66 and 29.34; body wt Average (Group 2, SU5416 25 mg/kg/day s.c., Day 21): 25.25; body wt (Group 2, SU5416 25 mg/kg/day s.c., Day 21, 25 mg/kg/day): 28.31 and 25.2 and 31.41 and 23.29 and 24.3 and 28.9; body wt Average (Group 2, SU5416 25 mg/kg/day s.c., Day 24): 24.57; body wt (Group 2, SU5416 25 mg/kg/day s.c., Day 24, 25 mg/kg/day): 27.88 and 30.13; body wt Average (Group 2, SU5416 25 mg/kg/day s.c., Day 31): 24.16; body wt (Group 2, SU5416 25 mg/kg/day s.c., Day 31, 25 mg/kg/day): 22.69 and 27.38 and 27.9 and 23.36 and 29.73; body wt Average (Group 2, SU5416 25 mg/kg/day s.c., Day 35): 24.26; body wt (Group 2, SU5416 25 mg/kg/day s.c., Day 35, 25 mg/kg/day): 26.84 and 23.55 and 30.55 and 22.47 and 27.58; body wt Average [1]: 26.43; body wt [1]: 26.74 and 25.91 and 26.14 and 27.7 and 27.87 and 28.26 and 22.8; body wt Average [2]: 28.38; body wt [2]: 27.85 and 27.13 and 28.82 and 29.12 and 29.67 and 28.34 and 27.09; body wt Average [3]: 28.80; body wt [3]: 29.2 and 27.93 and 27.67 and 28.95 and 29.52 and 30.71 and 28.54 and 27.84; body wt Average [4]: 27.38; body wt [4]: 27.6 and 27.47 and 25.89 and 27.54 and 27.7 and 29.06 and 27.27 and 26.48; body wt Average [5]: 26.28; body wt [5]: 26.78 and 26.26 and 24.3 and 26.57 and 26.39 and 27.92 and 26.1 and 25.89; body wt Average [6]: 25.60; body wt [6]: 26.09 and 26.64 and 23.59 and 25.64 and 26.74 and 25.2; body wt (Group 5, SU-5416 50 mpkd, Day 24): 24.36 and 25.64 and 24.93 and 26.23 and 25.24; body wt Average [7]: 24.71; body wt [7]: 23.48 and 25.06 and 22.49 and 22.54 and 24.94 and 26.64 and 26.47; body wt (Group 5, SU-5416 50 mpkd, Day 35): 25.06 and 25.86 and 22.4 and 23.59 and 23.51 and 27.79 and 26.37 and 25.74

Values joined by “and” are separate entries in the source; they are usually repeats but may differ in a detail not shown here. Identical values can stand only once. Like-named read-outs stand apart in the source and are kept apart here.
